Laboratory results published in article PMC2830854.
Where two headings read alike, the source gives them in different places.

B1: Eu(III)-DOTA-PEG9-NDP-α-MSH, P01189 (peptide)
chain: SYSMEHFRWGKPV
B2: Eu(III)-DTPA-PEG9-NDP-α-MSH, P01189 (peptide)
chain: SYSMEHFRWGKPV

What was measured:
[1] = target: hMC4R (Homo sapiens), P32245; details: modification not given
[2] = target: hMC4R (Homo sapiens), P32245; details: modification not given; remark: listed apart in the source

| Binder | Kd [1] [µM] | Kd [2] [µM] |
| --- | --- | --- |
| B1 | 0.049 |  |
| B2 |  | 0.038 |
